Experimental data from paper PMC12591191, “SIRT6 Lysine‐Demyristoylates ATF2 to Ameliorate Vascular Injury via PRKCD/VE‐Cadherin Pathway Regulating Vascular Endothelial Barrier” (Advanced Science, 2025).

Sequences of proteins named here, by UniProt entry; tags and fusion partners are left off.
UniProt Q8N6T7, whole entry: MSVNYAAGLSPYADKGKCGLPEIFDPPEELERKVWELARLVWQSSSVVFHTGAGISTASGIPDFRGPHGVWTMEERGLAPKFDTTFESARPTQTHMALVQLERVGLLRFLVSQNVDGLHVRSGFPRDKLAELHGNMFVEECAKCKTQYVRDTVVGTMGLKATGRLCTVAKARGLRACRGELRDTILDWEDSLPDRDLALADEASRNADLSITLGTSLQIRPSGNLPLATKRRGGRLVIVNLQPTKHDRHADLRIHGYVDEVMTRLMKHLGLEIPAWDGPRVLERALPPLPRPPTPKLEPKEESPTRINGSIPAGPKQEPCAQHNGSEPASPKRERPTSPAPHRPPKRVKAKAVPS
UniProt Q8N6T7, whole entry S56Y: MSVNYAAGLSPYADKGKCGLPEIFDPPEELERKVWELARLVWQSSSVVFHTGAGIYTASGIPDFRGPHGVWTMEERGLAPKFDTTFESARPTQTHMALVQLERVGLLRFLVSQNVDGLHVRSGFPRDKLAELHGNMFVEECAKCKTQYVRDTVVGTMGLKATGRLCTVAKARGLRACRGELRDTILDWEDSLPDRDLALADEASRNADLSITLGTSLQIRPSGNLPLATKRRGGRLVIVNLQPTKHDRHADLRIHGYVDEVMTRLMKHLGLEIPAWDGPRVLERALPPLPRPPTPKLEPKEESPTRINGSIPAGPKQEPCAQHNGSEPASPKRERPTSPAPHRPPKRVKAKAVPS
UniProt Q8N6T7, whole entry G60A: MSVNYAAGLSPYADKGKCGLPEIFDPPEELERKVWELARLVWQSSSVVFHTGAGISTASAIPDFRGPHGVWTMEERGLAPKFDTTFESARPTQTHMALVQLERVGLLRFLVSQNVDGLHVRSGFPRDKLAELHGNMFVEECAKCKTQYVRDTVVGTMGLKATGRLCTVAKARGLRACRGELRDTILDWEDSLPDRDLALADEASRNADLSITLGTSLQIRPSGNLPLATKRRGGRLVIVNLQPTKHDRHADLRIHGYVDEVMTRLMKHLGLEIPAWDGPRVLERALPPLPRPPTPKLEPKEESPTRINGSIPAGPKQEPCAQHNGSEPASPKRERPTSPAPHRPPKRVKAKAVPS
UniProt Q8N6T7, whole entry H133Y: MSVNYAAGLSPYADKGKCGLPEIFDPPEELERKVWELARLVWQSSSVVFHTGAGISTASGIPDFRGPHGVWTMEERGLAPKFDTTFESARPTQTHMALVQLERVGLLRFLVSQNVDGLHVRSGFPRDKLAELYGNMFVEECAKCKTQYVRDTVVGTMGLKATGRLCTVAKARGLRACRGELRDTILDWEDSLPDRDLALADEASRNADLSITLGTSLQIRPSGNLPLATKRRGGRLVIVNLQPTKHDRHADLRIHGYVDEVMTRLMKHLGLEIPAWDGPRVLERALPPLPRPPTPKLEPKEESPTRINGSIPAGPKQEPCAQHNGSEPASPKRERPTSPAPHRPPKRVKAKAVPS
UniProt Q8N6T7, whole entry R65A: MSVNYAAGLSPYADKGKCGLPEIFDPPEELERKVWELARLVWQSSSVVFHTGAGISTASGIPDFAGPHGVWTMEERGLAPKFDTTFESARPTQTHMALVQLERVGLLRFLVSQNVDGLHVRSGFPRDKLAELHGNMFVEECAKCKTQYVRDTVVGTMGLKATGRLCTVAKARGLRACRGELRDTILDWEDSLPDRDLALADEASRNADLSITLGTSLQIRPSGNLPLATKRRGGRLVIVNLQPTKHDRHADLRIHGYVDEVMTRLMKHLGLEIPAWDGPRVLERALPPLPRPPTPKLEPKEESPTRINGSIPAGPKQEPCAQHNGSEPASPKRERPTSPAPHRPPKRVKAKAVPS

How the values were obtained:
Format in all cases: binding
[1] = molecular target: T1, SIRT6 (Homo sapiens, UniProt Q8N6T7); assay: Biolayer interferometry, SIRT6; conditions: BLI, PBS-T, 120 µM biotin peptide on sensor, analyte SIRT6 0.18 to 5.5 µM, no detection; read-out: KD (nt)
T1 construct: the full‐length human SIRT6 (1‐355aa) with the flag tag at the C‐terminus; His-tag (N); made in house; host or cells: E. coli ArcticExpress (DE3), pET28a
Text: (§1) The plasmid pUC57‐SIRT6 contained the full‐length human SIRT6 (1‐355aa) with the flag tag at the C‐terminus. The PCR fragment SIRT6‐Flag from pUC57‐SIRT6 was inserted into pET28a vector to obtain the plasmid pET28a‐SIRT6. Then the pET28a‐SIRT6G60A, pET28a‐SIRT6R65A, pET28a‐SIRT6S56Y, and pET28a‐SIRT6H133Y expression plasmids were obtained through site‐directed mutagenesis by PCR. These SIRT6 expression plasmids were used for SIRT6 expression and purification in E.coli.
(§2) The expression plasmids were transformed in the E.coli Arctic Express (DE3) cells, respectively. The E.coli cells were cultured at 37 °C in 2X YT culture medium. When OD600 reached 0.8, cells were induced by 0.2 mM isopropyl‐1‐thio‐β‐D‐galactopyranoside (IPTG) for 18–20 h at 16 °C. Then, cells were harvested by centrifugation at 6000 rpm for 10min at 4 °C and resuspended in lysis buffer (20 mM Tris‐HCl pH 7.2, 500 mM NaCl, 2% glycerol). Cells were lysed by a high‐pressure homogenizer (Avestin), and centrifuged at 15 000 rpm for room temperature min at 4 °C. […]
(§3) To determinate the affinity of SIRT6 proteins to myristoylated peptides, BLI assays were performed in 96 well plates using an Octet Red96 System. […] Meanwhile, the protein‐peptide affinities were also determined after adding several cofactors (5 mM), such as Mg^2+, Zn^2+, ATP, ADP, AMP, cAMP, NAD^+.

[2] = molecular target: T2, SIRT6 S56Y (Homo sapiens, UniProt Q8N6T7, S56Y); assay: Biolayer interferometry, S56Y mutant; conditions: BLI, PBS-T, 120 µM biotin peptide on sensor, analyte S56Y 0.18 to 5.5 µM, no detection; read-out: KD (nt)
T2 construct: the full‐length human SIRT6 (1‐355aa) with the flag tag at the C‐terminus; made in house; host or cells: E. coli ArcticExpress (DE3), pET28a
Text: as §1, §2, §3

[3] = molecular target: T3, SIRT6 G60A (Homo sapiens, UniProt Q8N6T7, G60A); assay: Biolayer interferometry, G60A mutant; conditions: BLI, PBS-T, 120 µM biotin peptide on sensor, analyte G60A 0.18 to 5.5 µM, no detection; read-out: KD (nt)
T3 construct: the full‐length human SIRT6 (1‐355aa) with the flag tag at the C‐terminus; made in house; host or cells: E. coli ArcticExpress (DE3), pET28a
Text: as §1, §2, §3

[4] = molecular target: T4, SIRT6 H133Y (dSIRT6) (Homo sapiens, UniProt Q8N6T7, H133Y); assay: Biolayer interferometry, H133Y mutant; conditions: BLI, PBS-T, 120 µM biotin peptide on sensor, analyte H133Y 0.18 to 5.5 µM, no detection; read-out: KD (nt)
T4 construct: the full‐length human SIRT6 (1‐355aa) with the flag tag at the C‐terminus; made in house; host or cells: E. coli ArcticExpress (DE3), pET28a
Text: as §1, §2, §3

[5] = Biolayer interferometry, Flag peptide (negative control); conditions: BLI, PBS-T, 120 µM biotin peptide on sensor, analyte flag peptide 0.18 to 5.5 µM
Experimental: To determinate the affinity of SIRT6 proteins to myristoylated peptides, BLI assays were performed in 96 well plates using an Octet Red96 System. Assays were performed in PBS‐T buffer (1X PBS, 0.05% tween‐20), 120 µM B‐H3K9^Myr‐5R or B‐H3K9‐5R was attached reversibly to the sensor chip surface. Then, the analytes (SIRT6/SIRT6 mutants/flag peptide, ranged from 0.18 to 5.5 µM) were injected over the sensor surface. We can determine the protein‐peptide affinity by calculating the KD value by the instrument system. Meanwhile, the protein‐peptide affinities were also determined after adding several cofactors (5 mM), such as Mg^2+, Zn^2+, ATP, ADP, AMP, cAMP, NAD^+.

[6] = molecular target: T5, SIRT6 R65A (Homo sapiens, UniProt Q8N6T7, R65A); assay: Biolayer interferometry, R65A mutant; conditions: BLI, PBS-T, 120 µM biotin peptide on sensor, analyte R65A 0.18 to 5.5 µM, no detection; read-out: KD (nt)
T5 construct: the full‐length human SIRT6 (1‐355aa) with the flag tag at the C‐terminus; made in house; host or cells: E. coli ArcticExpress (DE3), pET28a
Text: as §1, §2, §3

Measured: Kd

C[C@H](NC(=O)[C@H](CCCCN)NC(=O)CNC(=O)CNC(=O)[C@@H](NC(=O)[C@H](CO)NC(=O)[C@H](CCCCN)NC(=O)[C@H](CCCNC(=N)N)NC(=O)[C@H](C)NC(=O)[C@@H](NC(=O)[C@H](CCC(N)=O)NC(=O)[C@H](CCCCN)NC(=O)CCCC[C@@H]1SC[C@@H]2NC(=O)N[C@@H]21)[C@@H](C)O)[C@@H](C)O)C(=O)N[C@@H](CCCNC(=N)N)C(=O)N[C@@H](CCCNC(=N)N)C(=O)N[C@@H](CCCNC(=N)N)C(=O)N[C@@H](CCCNC(=N)N)C(=O)N[C@@H](CCCNC(=N)N)C(=O)O [B‐H3K9‐5R, biotin‐KQTARKSTGGKARRRRR]
> 5.5 µM: all assays above
